The values below are quoted from earlier work in patent publication US20210213132A1, “FORMULATIONS OF SN-38 WITH POLY(AMINO ACID) BLOCK POLYMERS” (Tyndall Formulation Services, LLC, priority 2020, published 2021).

Structures are written as SMILES.

In the data set the test system is carboxylesterases, specifically CES1 and CES2. The note with it: estimated; Rivory et al. 1996.

As for `CCc1c2c(nc3ccc(OC(=O)N4CCC(N5CCCCC5)CC4)cc13)-c1cc3c(c(=O)n1C2)COC(=O)[C@]3(O)CC` [Irinotecan], the “Fraction of the prodrug hydrolyzed to SN-38” value is reported as “less than 10%”.
